# Assay outcomes from PubChem BioAssay.
# Most compounds without a hit are left out; they make up all but 1.5% or so of the library.
# RAD54 inh: inhibitors of human RAD54 branch migration; Q92698; RAD54 Holliday junction branch migration, FAM/BHQ fluorescence; hit rate 0.14% among 360,000; inhibition, % at 10.4 µM;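 active means mean normalized replicate activity at least 40 and at least half of replicates scoring 40 or more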;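 further: 0% = median of neutral control wells and 100% = median of positive control wells; inhibitors cause a drop in the FAM fluorescence signal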
# PglD inh: PglD (C. jejuni) enzyme inhibition; purified PglD enzyme, DTNB colorimetric CoA detection; inhibition, % at 12.5 µM; hit rate 0.098% among 360,000; in the data active means inhibition above about 16%, passing the limit was not always enough
# UUG fidelity: yeast start codon fidelity modulation | S. cerevisiae UUG-firefly luciferase reporter, luminescence/redox ratio | activity score, % at 18.7 µM | hit rate 0.13% among 350,000 | AID 602363;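 active means replicate mean at a twofold rise or more, about +100% in these data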;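 further: firefly luciferase made from a UUG start codon reports start codon fidelity; reporter light over untreated wells divided by growth signal over untreated wells; some hits fall short of that in this replicate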
# RAD52 anneal inh: inhibitors of human RAD52 DNA annealing | P43351 | recombinant RAD52 DNA annealing, FRET fluorescence | inhibition, % at 18.7 µM | hit rate 0.46% among 360,000;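 active means every replicate showing at least 50% inhibition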
# INS-1E GSIS act: primary screen for activators of insulin secretion dependent on glucose, INS-1E cells, GLuc reporter luminescence | INS-1E GLuc reporter insulin secretion, 2-3 h | activation, % at 16.6 µM | hit rate 0.61% among 370,000;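 active means lowest replicate activation of at least 40%, so every replicate reaches that level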;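 further: 0% = median of neutral control wells and 100% = median of IBMX positive control wells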
# CASP6 VEID inh: inhibitors of human caspase-6; inhibition, % at 12.5 µM; hit rate 0.53% among 350,000; purified caspase-6, Z-VEID-R110 cleavage fluorescence; P55212;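 active means mean inhibition across replicates at least about 35%, with every replicate also reaching that limit, limit read from the data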;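 further: 0% = median of neutral control wells and 100% = no fluorescence left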
# Numbers without * were called inactive; x = no result given.
[1] COc1cccc(-c2cc(C(F)(F)F)nc(-n3cncn3)n2)c1
[2] Fc1ccc(-c2cc(C(F)(F)F)nc(-n3cccn3)n2)cc1
[3] Fc1ccc(-c2cc(C(F)(F)F)nc(-n3cncn3)n2)cc1
[4] COCCNC(=O)C1CCC(CNS(=O)(=O)c2ccc3c(c2)CC(C)N3C(=O)C2CC2)CC1 (configuration not stated)
[5] CC(C(=O)Nc1ccc2[nH]c(=O)[nH]c2c1)N1CCN(Cc2ccc3c(c2)OCO3)CC1 (configuration not stated)
[6] CC(C(=O)Nc1ccc2c(c1)OCO2)N1CCN(C)CC1 (configuration not stated)
[7] CC(C)CC(=O)Nc1cccc(-c2nc3ncccc3o2)c1
[8] CC(=O)Nc1ccc(Cl)c(-c2nc3ncccc3o2)c1
assay / compound,1,2,3,4,5,6,7,8
RAD54 inh,-0.9,3.4,x,-0.7,2.9,4.7,0.5,7.9
INS-1E GSIS act,64.9*,36.7,51.5*,x,60.4*,19.1,41.0*,57.5*
PglD inh,-3.9,-1.6,x,1.4,-4.7,-1.8,-2.5,1.6
RAD52 anneal inh,x,2.8,x,-8.1,-3.5,0.9,-20.0,-11.8
CASP6 VEID inh,x,-0.5,x,-1.0,-13.8,13.6,-1.4,-1.0
UUG fidelity,-13.8,-12.6,x,13.5,-10.2,3.8,-6.0,-17.2

[9] Cc1cc(-c2nc3ncccc3o2)ccc1NC(=O)CC(C)C
[10] CCOC(=O)N1CCN(C(=O)c2ccccc2NC(=O)c2ccccc2Cl)CC1
[11] O=C1CSC(c2ccccn2)N1c1ccccc1 (configuration not stated)
[12] O=C1CSC(c2ccccn2)N1c1ccc(Br)cc1 (configuration not stated)
[13] COc1ccc(C(=O)NCC(c2ccco2)N2CCCC2)cc1S(=O)(=O)N1CCCCC1C (configuration not stated)
[14] COc1ccc(C(=O)NCC(c2ccco2)N2CCCCC2)cc1S(=O)(=O)Nc1ccc(C)cc1 (configuration not stated)
[15] CCCN(C)C[C@@H]1Oc2cc(C#CCC(C)C)ccc2S(=O)(=O)N([C@@H](C)CO)C[C@H]1C
[16] CC(C)CC#Cc1ccc2c(c1)O[C@@H](CN(C)Cc1ccc(F)cc1)[C@H](C)CN([C@H](C)CO)S2(=O)=O
assay / compound,9,10,11,12,13,14,15,16
RAD54 inh,-12.2,6.7,-3.6,x,2.4,-6.0,x,2.1
INS-1E GSIS act,x,9.1,16.2,42.6*,-28.1,-27.0,-20.8,45.7*
PglD inh,-2.2,0.3,3.5,x,5.9,2.3,x,-5.5
RAD52 anneal inh,-6.5,-1.7,-6.2,-18.1,-34.9,-34.5,-14.6,7.9
CASP6 VEID inh,-0.1,-0.3,-1.5,0.2,52.6*,2.4,-1.1,-0.9
UUG fidelity,-19.2,6.9,-10.5,x,-0.7,-16.6,x,2.8

# Some of the entries above in another layout:
# Second line of a record – RAD54 inh, INS-1E GSIS act, PglD inh, RAD52 anneal inh, CASP6 VEID inh, UUG fidelity
[10] CCOC(=O)N1CCN(C(=O)c2ccccc2NC(=O)c2ccccc2Cl)CC1
 : 6.7, 9.1, 0.3, -1.7, -0.3, 6.9
[11] O=C1CSC(c2ccccn2)N1c1ccccc1 (configuration not stated)
 : -3.6, 16.2, 3.5, -6.2, -1.5, -10.5
[12] O=C1CSC(c2ccccn2)N1c1ccc(Br)cc1 (configuration not stated)
 : x, 42.6*, x, -18.1, 0.2, x
[13] COc1ccc(C(=O)NCC(c2ccco2)N2CCCC2)cc1S(=O)(=O)N1CCCCC1C (configuration not stated)
 : 2.4, -28.1, 5.9, -34.9, 52.6*, -0.7

# The listing continues.
[17] CCCN(C)C[C@@H]1Oc2cc(C#CCC(C)C)ccc2S(=O)(=O)N([C@@H](C)CO)C[C@@H]1C
[18] CC(C)CC#Cc1ccc2c(c1)O[C@@H](CN(C)Cc1ccccc1)[C@@H](C)CN([C@H](C)CO)S2(=O)=O
[19] COc1cc(NC(=O)C2(C)CCCN(C(C)C)C2)cc(OC)c1OC (configuration not stated)
[20] NC(N)=NN=C1c2ccccc2-c2ccccc21
[21] ON=C1c2ccccc2-c2ccccc21
[22] O=C(Nc1ccn(Cc2c(F)c(F)c(F)c(F)c2F)n1)c1cccc(Cn2cc([N+](=O)[O-])cn2)c1
[23] CN(CCO)c1nc(N)c(C#N)c(CC#N)c1C#N
[24] CN(c1ccccc1)c1nc(N)c(C#N)c(CC#N)c1C#N
assay / compound,17,18,19,20,21,22,23,24
RAD54 inh,2.0,x,-2.9,81.6*,2.0,6.8,2.0,10.8
INS-1E GSIS act,-14.9,50.9,5.4,-26.2,-7.6,x,24.1,66.2*
PglD inh,1.0,x,4.8,6.6,-2.9,3.6,-3.4,-0.6
RAD52 anneal inh,51.1*,x,-18.2,42.9,1.5,x,-88.8,x
CASP6 VEID inh,0.0,x,0.3,-4.1,-2.7,x,-0.2,x
UUG fidelity,-2.4,x,-10.9,-16.7,-20.8,-2.3,-25.9,3.5

[25] CS(=O)(=O)N1CC(=O)N2[C@H](C1)[C@@H](c1ccc(C#Cc3cccc(F)c3)cc1)[C@@H]2CO
[26] CCOC(=O)c1c(S(=O)(=O)NCCc2ccc(OC)c(OC)c2)c(C)n(C)c1C
[27] COc1ccc(CCNS(=O)(=O)c2cn(C)cn2)cc1OC
[28] COc1ccc(CCNS(=O)(=O)c2cnc(Cl)c(Br)c2)cc1OC
[29] CCn1cc(S(=O)(=O)NCCc2ccc(OC)c(OC)c2)cn1
[30] COc1ccc(Cc2nc3ccc(C(=O)N4CCOCC4)cc3o2)cc1
[31] N#Cc1cc2ccc(N3CCOCC3)cc2cc1C#N
[32] N#Cc1cc(Cl)c(N2CCOCC2)cc1C#N
assay / compound,25,26,27,28,29,30,31,32
RAD54 inh,x,-4.3,2.7,-7.4,-7.7,-0.7,3.7,6.2
INS-1E GSIS act,-5.6,51.2*,43.7*,19.5,48.3*,12.7,-52.6,x
PglD inh,x,0.7,-0.1,-9.6,7.2,3.0,-0.7,3.7
RAD52 anneal inh,-4.3,-9.1,-5.7,-7.9,-11.3,-11.8,-15.4,x
CASP6 VEID inh,2.4,0.3,4.4,1.7,-4.5,5.9,64.2*,x
UUG fidelity,x,-6.0,-20.0,-10.8,-8.9,8.6,-2.4,-13.1

[33] Cc1ccc(NS(=O)(=O)c2ccc(-c3ccc(=O)[nH]n3)o2)cc1
[34] Cc1cccc(C)c1NS(=O)(=O)c1ccc(-c2ccc(=O)[nH]n2)o1
[35] COCC(=O)Nc1ccc2c(c1)OC[C@H](C)N(Cc1ccncc1)C[C@@H](C)[C@@H](OC)CN(C)C2=O
[36] O=C(N/N=C/C=C/c1ccccc1[N+](=O)[O-])c1cccs1
[37] O=C(N/N=C\C=C\c1ccc([N+](=O)[O-])o1)c1cccs1
[38] O=C(O)/C=C/c1ccc([N+](=O)[O-])o1
[39] O=C(Nc1ccccc1F)C1CCCC1
[40] Cc1ccc(S(=O)(=O)Nc2c(C(=O)O)[nH]c3ccccc23)cc1C
assay / compound,33,34,35,36,37,38,39,40
RAD54 inh,-4.2,5.7,4.0,10.9,26.6,x,-9.8,-9.7
INS-1E GSIS act,-8.2,7.5,3.4,-32.8,-20.9,1.4,x,3.8
PglD inh,-4.0,2.0,-1.8,1.9,-2.5,x,4.0,0.5
RAD52 anneal inh,-1.7,5.2,-0.4,-10.2,-1.1,-19.0,-7.2,-18.3
CASP6 VEID inh,-4.5,40.6*,0.2,-4.1,56.3*,61.0*,1.9,14.4
UUG fidelity,3.3,-6.5,3.8,1.3,0.0,x,-9.1,-0.7

[41] CCCC[n+]1ccn(C2=C([O-])c3ccccc3C(=O)/C2=N\S(=O)(=O)c2ccccc2)c1
[42] CC(C)[n+]1ccn(C2=C([O-])c3ccccc3C(=O)/C2=N\S(=O)(=O)c2ccccc2)c1
[43] N#C/C(=C/c1ccc(O)c(O)c1)C(=O)NCc1ccc(Cl)cc1
[44] N#C/C(=C\c1ccc(O)c(O)c1)C(=O)Nc1cccc2ncccc12
[45] COc1ccc(S(=O)(=O)N2CCC(C(N)=O)(N3CCCCC3)CC2)cc1OC
[46] COc1cc2cnc(CCCC#N)cc2cc1OC
[47] N#CCCCc1cc2ccccc2cn1
[48] COCCCNC(=O)CN1C(=O)COc2ccc(S(=O)(=O)N3CCCCCC3)cc21
[49] CC(C)OCCCNC(=O)CN1C(=O)COc2ccc(S(=O)(=O)N3CCCCCC3)cc21
assay / compound,41,42,43,44,45,46,47,48,49
RAD54 inh,5.5,x,-7.6,1.5,-9.7,-5.5,-2.9,-2.3,-16.4
INS-1E GSIS act,x,x,-3.2,3.4,71.1*,x,50.6*,2.4,-16.0
PglD inh,-2.9,x,-3.1,-3.7,0.5,6.0,0.8,3.3,2.3
RAD52 anneal inh,x,-4.4,-44.2,-0.3,-11.1,-0.4,-10.2,-2.3,-9.3
CASP6 VEID inh,x,35.2*,35.3*,58.3*,0.5,-8.5,-2.0,1.0,36.8*
UUG fidelity,-6.1,x,-16.1,-17.7,-3.1,-3.1,-5.3,-6.3,-4.2
